Test results reported in paper PMC12415213, “A genome-scale drug discovery pipeline uncovers therapeutic targets and a unique p97 allosteric binding site in Schistosoma mansoni” (Proceedings of the National Academy of Sciences of the …, 2025).

Protein sequences, listed by entry. Tags and fused reporters are not part of them.
UniProt G4M0P7, entry or part of it: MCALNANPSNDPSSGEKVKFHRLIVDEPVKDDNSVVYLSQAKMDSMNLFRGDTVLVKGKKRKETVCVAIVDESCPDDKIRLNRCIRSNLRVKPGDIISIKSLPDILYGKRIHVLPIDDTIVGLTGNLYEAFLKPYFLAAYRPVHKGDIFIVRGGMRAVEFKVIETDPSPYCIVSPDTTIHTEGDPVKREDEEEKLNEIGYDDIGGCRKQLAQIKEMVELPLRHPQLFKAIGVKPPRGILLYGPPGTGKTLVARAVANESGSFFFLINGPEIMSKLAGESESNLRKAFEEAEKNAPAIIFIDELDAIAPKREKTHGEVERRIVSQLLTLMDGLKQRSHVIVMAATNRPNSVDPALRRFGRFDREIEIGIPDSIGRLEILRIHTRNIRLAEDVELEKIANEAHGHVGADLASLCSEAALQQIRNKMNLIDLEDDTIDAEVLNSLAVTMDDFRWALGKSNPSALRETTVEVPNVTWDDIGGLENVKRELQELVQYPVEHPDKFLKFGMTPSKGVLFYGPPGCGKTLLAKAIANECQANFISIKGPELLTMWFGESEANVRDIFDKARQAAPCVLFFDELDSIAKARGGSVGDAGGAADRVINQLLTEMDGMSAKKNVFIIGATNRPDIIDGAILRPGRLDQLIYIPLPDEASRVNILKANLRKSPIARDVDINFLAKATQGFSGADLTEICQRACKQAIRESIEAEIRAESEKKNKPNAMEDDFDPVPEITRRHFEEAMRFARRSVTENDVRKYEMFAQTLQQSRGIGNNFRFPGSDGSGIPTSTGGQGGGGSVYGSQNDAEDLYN
UniProt P55072, whole entry: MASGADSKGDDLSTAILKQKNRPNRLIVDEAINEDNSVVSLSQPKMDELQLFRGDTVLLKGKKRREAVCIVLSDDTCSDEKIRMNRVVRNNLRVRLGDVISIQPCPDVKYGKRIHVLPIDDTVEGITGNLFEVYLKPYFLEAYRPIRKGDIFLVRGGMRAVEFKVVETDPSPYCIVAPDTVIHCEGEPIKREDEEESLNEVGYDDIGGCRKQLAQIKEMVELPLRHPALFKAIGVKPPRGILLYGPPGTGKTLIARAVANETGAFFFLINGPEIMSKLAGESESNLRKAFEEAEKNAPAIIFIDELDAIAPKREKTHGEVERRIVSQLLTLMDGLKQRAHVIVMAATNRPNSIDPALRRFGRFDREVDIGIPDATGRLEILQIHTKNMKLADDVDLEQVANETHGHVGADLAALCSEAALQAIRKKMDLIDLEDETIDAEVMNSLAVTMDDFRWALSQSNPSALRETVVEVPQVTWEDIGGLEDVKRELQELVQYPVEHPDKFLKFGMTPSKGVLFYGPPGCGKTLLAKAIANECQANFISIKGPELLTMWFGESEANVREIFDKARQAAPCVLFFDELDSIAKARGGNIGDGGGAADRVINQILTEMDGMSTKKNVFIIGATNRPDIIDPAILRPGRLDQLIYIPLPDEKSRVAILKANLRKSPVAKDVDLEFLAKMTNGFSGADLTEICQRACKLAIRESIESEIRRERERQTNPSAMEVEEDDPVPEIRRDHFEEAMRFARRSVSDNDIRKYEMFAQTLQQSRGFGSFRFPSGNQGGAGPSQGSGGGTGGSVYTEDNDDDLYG

Experiments:
adult S. mansoni = assay: Single-concentration (10 μM) treatment of adult worms, attachment and morphology; type: cell-based, Schistosoma mansoni; conditions: in vitro culture
Experimental: DMSO). All selected compounds were obtained from commercial vendors (Medchemexpress, Selleck Chemicals, Sigma-Aldrich, ApexBio, Tocris, Santa Cruz Biotechnology, and Cayman Chemical Company) (Dataset S4) with […]
the activity of the desired compounds. Roughly 5 adult worm pairs were placed in 3mL Basch medium in a 12-well culture vessel, and incubated at 37° C, 5% CO2 for the length of the experiment. Compound was administered at D0, D1, and D2, media and drug refreshed every 24 hr. Worms were then allowed to remain in culture until D5, where a final assessment of worm attachment to tissue culture substate was made by light microscopy.
Observations on movement and morphology were also recorded. A negative control (0.1% DMSO) and positive control (PZQ; 10 µM in 0.1% DMSO) were included in each experiment, and each experiment was repeated in triplicate for validation. […]

[1] = biological target: S. mansoni p97 (Smp_018240) (Schistosoma mansoni, UniProt G4M0P7); type: biochemical
Experimental: Evaluation of p97’s ATPase activity and compound potency
For manual ATP consumption assays, 1 µM p97 was incubated with 1% DMSO or inhibitor (1% DMSO final) in assay buffer [50 mM Tris (pH 7.5), 20 mM MgCl2, 1 mM EDTA, 0.5 mM tris(2-carboxyethyl)phosphine (TCEP)] for 5 minutes prior to the addition of 20 µM ATP in a 384-well plate for a total reaction volume of 10 µL, and a final concentration of 500nM enzyme and 10 µM ATP. The reaction was allowed to proceed for 50 minutes at room temperature before adding equivalent volume of Kinase-Glo Plus reagent (Promega), and a further incubation of 10 minutes in the dark. Luminescence was read using a BioTek Synergy 2 plate reader […]
1 μM, 500 nM, 100 nM, 50 nM, 10 nM, 5 nM, 1 nM, and 0 nM) in triplicate, maintaining a concentration of 1% […]
were calculated using GraphPad Prism. […]

H. sapiens p97 (P55072) = biological target: T1, H. sapiens p97 (P55072) (Homo sapiens, UniProt P55072); assay: Kinase-Glo ATP consumption assay, recombinant H. sapiens p97; type: biochemical; conditions: recombinant Hsp97, Kinase-Glo, 100 μM to 1 nM; NA = no notable effect on the enzyme at tested concentrations; >100 = IC50 predicted above 100 μM or maximal inhibition not achieved
T1 construct: purified recombinant full-length (1-806aa) H; 6xHis (N); made in house; host or cells: E. coli BL21 (DE3)

Compound	phenotype of adult worms after treatment (adult S. mansoni)	Fold Selectivity (parasite enzyme over human enzyme) [1] [fold]	IC50 [1] [µM]	IC50 (H. sapiens p97 (P55072)) [µM]
O=C(C#CC1CCCCC1)Nc1ccc2oc(-c3ccccn3)nc2c1 [Compound 733]	still active on worms	1.3	34 ± 1.6	43 ± 4.4
O=C(C#Cc1ccncc1)Nc1ccc2oc(-c3ccc(C(F)(F)F)cn3)nc2c1 [Compound 808]	–	2.3	0.18 ± 0.026	0.41 ± 0.084
